Results as given in PubChem BioAssay (NCI).
Some results for these compounds are left out of this collection, so the calls shown say nothing about other tests.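 These data come from cells grown in 96-well plates and exposed to compound for 48 hours at five concentrations. Abbreviation: GI50, concentration required for 50% inhibition of growth. The concentration for full growth arrest is given as TGI.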

Key:
Assay in all cases: inhibition of tumour cell growth, NCI panel, 48 h
RPMI-8226 leukemia = test system: RPMI-8226 leukemia
SK-MEL-5 melanoma = test system: SK-MEL-5 melanoma
IGROV1 ovarian = test system: IGROV1 ovarian
HL-60(TB) leukemia = test system: HL-60(TB) leukemia
LOX IMVI melanoma = test system: LOX IMVI melanoma
NCI-H226 lung = test system: NCI-H226 lung
KM12 colon = test system: KM12 colon
SW-620 colon = test system: SW-620 colon
OVCAR-8 ovarian = test system: OVCAR-8 ovarian
MCF7 breast = test system: MCF7 breast
SK-MEL-28 melanoma = test system: SK-MEL-28 melanoma
M14 melanoma = test system: M14 melanoma
A549 NSCLC = test system: A549 NSCLC
CCRF-CEM leukemia = test system: CCRF-CEM leukemia
NCI-H522 lung = test system: NCI-H522 lung
MALME-3M melanoma = test system: MALME-3M melanoma
SR leukemia = test system: SR leukemia
MOLT-4 leukemia = test system: MOLT-4 leukemia
HCT-15 colon = test system: HCT-15 colon
SF-295 CNS = test system: SF-295 CNS
CAKI-1 renal = test system: CAKI-1 renal
MDA-MB-231 breast = test system: MDA-MB-231 breast
EKVX NSCLC = test system: EKVX NSCLC
HT29 colon = test system: HT29 colon
786-0 renal = test system: 786-0 renal
ACHN renal = test system: ACHN renal
MDA-N = test system: MDA-N
UO-31 renal = test system: UO-31 renal
UACC-62 melanoma = test system: UACC-62 melanoma
SF-268 CNS = test system: SF-268 CNS
UACC-257 melanoma = test system: UACC-257 melanoma
COLO 205 colon = test system: COLO 205 colon
HCT-116 colon = test system: HCT-116 colon
NCI-H23 lung = test system: NCI-H23 lung
RXF 393 renal = test system: RXF 393 renal
OVCAR-3 ovarian = test system: OVCAR-3 ovarian
MDA-MB-435 = test system: MDA-MB-435
NCI/ADR-RES ovarian = test system: NCI/ADR-RES ovarian
SNB-75 CNS = test system: SNB-75 CNS
K-562 leukemia = test system: K-562 leukemia
SN12C renal = test system: SN12C renal
HCC-2998 colon = test system: HCC-2998 colon
TK-10 renal = test system: TK-10 renal
HOP-62 NSCLC = test system: HOP-62 NSCLC
OVCAR-5 ovarian = test system: OVCAR-5 ovarian
SF-539 CNS = test system: SF-539 CNS
SNB-19 CNS = test system: SNB-19 CNS
SK-OV-3 ovarian = test system: SK-OV-3 ovarian
DU-145 prostate = test system: DU-145 prostate
T-47D breast = test system: T-47D breast
PC-3 prostate = test system: PC-3 prostate
U251 CNS = test system: U251 CNS
BT-549 breast = test system: BT-549 breast

C=C(C)C#CC(O)(C(=O)OC1CN2CCC1CC2)C(C)C (stereo unspecified)
GI50 (RPMI-8226 leukemia): > 100 µM
TGI (RPMI-8226 leukemia): > 100 µM
GI50 (SK-MEL-5 melanoma): > 100 µM
TGI (SK-MEL-5 melanoma): > 100 µM
GI50 (IGROV1 ovarian): > 100 µM
TGI (IGROV1 ovarian): > 100 µM
GI50 (HL-60(TB) leukemia): > 100 µM
TGI (HL-60(TB) leukemia): > 100 µM
GI50 (LOX IMVI melanoma): > 100 µM
TGI (LOX IMVI melanoma): > 100 µM
GI50 (NCI-H226 lung): > 100 µM
TGI (NCI-H226 lung): > 100 µM
GI50 (KM12 colon): > 100 µM
TGI (KM12 colon): > 100 µM
GI50 (SW-620 colon): > 100 µM
TGI (SW-620 colon): > 100 µM
GI50 (OVCAR-8 ovarian): > 100 µM
TGI (OVCAR-8 ovarian): > 100 µM
GI50 (MCF7 breast): > 100 µM
TGI (MCF7 breast): > 100 µM
GI50 (SK-MEL-28 melanoma): > 100 µM
TGI (SK-MEL-28 melanoma): > 100 µM
GI50 (M14 melanoma): > 100 µM
TGI (M14 melanoma): > 100 µM
GI50 (A549 NSCLC): > 100 µM
TGI (A549 NSCLC): > 100 µM
GI50 (CCRF-CEM leukemia): > 100 µM
TGI (CCRF-CEM leukemia): > 100 µM
GI50 (NCI-H522 lung): > 100 µM
TGI (NCI-H522 lung): > 100 µM
GI50 (MALME-3M melanoma): > 100 µM
TGI (MALME-3M melanoma): > 100 µM
GI50 (SR leukemia): > 100 µM
TGI (SR leukemia): > 100 µM
GI50 (MOLT-4 leukemia): > 100 µM
TGI (MOLT-4 leukemia): > 100 µM
GI50 (HCT-15 colon): > 100 µM
TGI (HCT-15 colon): > 100 µM
GI50 (SF-295 CNS): > 100 µM
TGI (SF-295 CNS): > 100 µM
GI50 (CAKI-1 renal): > 100 µM
TGI (CAKI-1 renal): > 100 µM
GI50 (MDA-MB-231 breast): > 100 µM
TGI (MDA-MB-231 breast): > 100 µM
GI50 (EKVX NSCLC): > 100 µM
TGI (EKVX NSCLC): > 100 µM
GI50 (HT29 colon): > 100 µM
TGI (HT29 colon): > 100 µM
GI50 (786-0 renal): > 100 µM
TGI (786-0 renal): > 100 µM
GI50 (ACHN renal): > 100 µM
TGI (ACHN renal): > 100 µM
GI50 (MDA-N): > 100 µM
TGI (MDA-N): > 100 µM
GI50 (UO-31 renal): > 100 µM
TGI (UO-31 renal): > 100 µM
GI50 (UACC-62 melanoma): > 100 µM
TGI (UACC-62 melanoma): > 100 µM
GI50 (SF-268 CNS): > 100 µM
TGI (SF-268 CNS): > 100 µM
GI50 (UACC-257 melanoma): > 100 µM
TGI (UACC-257 melanoma): > 100 µM
GI50 (COLO 205 colon): > 100 µM
TGI (COLO 205 colon): > 100 µM
GI50 (HCT-116 colon): > 100 µM
TGI (HCT-116 colon): > 100 µM
GI50 (NCI-H23 lung): > 100 µM
TGI (NCI-H23 lung): > 100 µM
GI50 (RXF 393 renal): > 100 µM
TGI (RXF 393 renal): > 100 µM
GI50 (OVCAR-3 ovarian): > 100 µM
TGI (OVCAR-3 ovarian): > 100 µM
GI50 (MDA-MB-435): > 100 µM
TGI (MDA-MB-435): > 100 µM
GI50 (NCI/ADR-RES ovarian): > 100 µM
TGI (NCI/ADR-RES ovarian): > 100 µM
GI50 (SNB-75 CNS): > 100 µM
TGI (SNB-75 CNS): > 100 µM
GI50 (K-562 leukemia): > 100 µM
TGI (K-562 leukemia): > 100 µM
GI50 (SN12C renal): > 100 µM
TGI (SN12C renal): > 100 µM
GI50 (HCC-2998 colon): > 100 µM
TGI (HCC-2998 colon): > 100 µM
GI50 (TK-10 renal): > 100 µM
TGI (TK-10 renal): > 100 µM
GI50 (HOP-62 NSCLC): > 100 µM
TGI (HOP-62 NSCLC): > 100 µM
GI50 (OVCAR-5 ovarian): > 100 µM
TGI (OVCAR-5 ovarian): > 100 µM
GI50 (SF-539 CNS): > 100 µM
TGI (SF-539 CNS): > 100 µM
GI50 (SNB-19 CNS): > 100 µM
TGI (SNB-19 CNS): > 100 µM
GI50 (SK-OV-3 ovarian): > 100 µM
TGI (SK-OV-3 ovarian): > 100 µM
GI50 (DU-145 prostate): > 100 µM
TGI (DU-145 prostate): > 100 µM
GI50 (T-47D breast): > 100 µM
TGI (T-47D breast): > 100 µM
GI50 (PC-3 prostate): > 100 µM
TGI (PC-3 prostate): > 100 µM
GI50 (U251 CNS): > 100 µM
TGI (U251 CNS): > 100 µM
GI50 (BT-549 breast): > 100 µM
TGI (BT-549 breast): > 100 µM
